Data reported in patent US9725457B2, “6-amido derivatives of 4, 5-a epoxymorphinans for the treatment of pain” (Sloan-Kettering Institute for Cancer Research, priority 2010, dated 2017).

Chains of the proteins cited; added tags and fusions are not shown.
UniProt P32300, whole entry: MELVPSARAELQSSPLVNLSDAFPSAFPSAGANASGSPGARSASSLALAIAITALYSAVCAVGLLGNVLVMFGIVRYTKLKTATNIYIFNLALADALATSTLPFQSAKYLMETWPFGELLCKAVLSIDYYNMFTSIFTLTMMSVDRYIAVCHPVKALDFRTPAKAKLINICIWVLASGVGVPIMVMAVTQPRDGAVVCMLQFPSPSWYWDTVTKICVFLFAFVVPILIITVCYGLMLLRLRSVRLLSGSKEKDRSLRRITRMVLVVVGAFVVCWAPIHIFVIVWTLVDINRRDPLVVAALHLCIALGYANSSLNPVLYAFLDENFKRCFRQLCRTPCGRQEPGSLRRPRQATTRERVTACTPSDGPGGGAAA

Biological target: T1, DOR (delta opioid receptor), DOR1-CHO (Mus musculus, UniProt P32300)
T1 construct: expressed in transfected cells; host or cells: CHO
Assay: Competition binding in DOR-CHO, 125I-SMGP1 radioligand
Procedure: Receptor-Binding Assays: Competition-binding assays in MOR-CHO (mu), DOR-CHO (delta) and KOR-CHO (kappa) were performed at 25° C. in 50 mM potassium phosphate buffer, pH 7.4, containing 5 mM magnesium sulfate (only in the case of CHO-MOR). Specific binding was defined as the difference between total binding and nonspecific binding, determined in the presence of 8 μM levallorphan. […] Protein concentrations were generally 20-40 μg/mL, incubation times were 90 minutes for all assays. […] Specific binding was defined as the difference between total binding and nonspecific binding, determined in the presence of 8 μM levallorphan. […] Kd, Bmax, and Ki values were calculated by nonlinear regression analysis (GraphPadPrism).

C=CCN1CCC23c4c5ccc(O)c4OC2C(NC(=O)c2ccc(-c4ccccc4)cc2)CCC3(O)C1C5 (stereo not shown) [SMGP 40]
Ki: 19.2 nM
